The values that follow come from patent US7452997B2 (priority 2004, dated 2008).

The chains behind the UniProt entries cited, without tags or fusion partners.
UniProt P21554, whole entry: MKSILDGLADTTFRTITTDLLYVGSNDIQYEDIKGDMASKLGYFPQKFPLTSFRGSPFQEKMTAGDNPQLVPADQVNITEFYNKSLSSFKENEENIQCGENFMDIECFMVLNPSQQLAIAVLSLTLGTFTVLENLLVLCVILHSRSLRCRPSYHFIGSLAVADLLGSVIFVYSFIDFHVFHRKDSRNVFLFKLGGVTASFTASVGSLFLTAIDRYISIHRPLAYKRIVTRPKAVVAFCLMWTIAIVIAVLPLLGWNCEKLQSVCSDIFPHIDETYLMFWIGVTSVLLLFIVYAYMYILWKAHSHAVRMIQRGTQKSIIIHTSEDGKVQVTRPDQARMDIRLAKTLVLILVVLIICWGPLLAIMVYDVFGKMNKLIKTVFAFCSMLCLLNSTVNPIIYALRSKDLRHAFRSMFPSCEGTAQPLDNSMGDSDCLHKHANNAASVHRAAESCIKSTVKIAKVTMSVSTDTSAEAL
UniProt P34972, whole entry: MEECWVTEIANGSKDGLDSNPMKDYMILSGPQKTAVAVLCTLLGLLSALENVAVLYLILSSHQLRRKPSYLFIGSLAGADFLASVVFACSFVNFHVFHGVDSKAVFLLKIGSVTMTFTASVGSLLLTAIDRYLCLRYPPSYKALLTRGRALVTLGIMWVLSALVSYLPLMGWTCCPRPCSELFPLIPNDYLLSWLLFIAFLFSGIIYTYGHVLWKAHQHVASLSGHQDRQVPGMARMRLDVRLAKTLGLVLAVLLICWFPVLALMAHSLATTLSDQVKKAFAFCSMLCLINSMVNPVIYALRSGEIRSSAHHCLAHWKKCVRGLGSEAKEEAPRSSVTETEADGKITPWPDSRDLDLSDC

Molecules are shown by their SMILES.

Assay [1] has as its target T1, human CB1 receptor (Homo sapiens, UniProt P21554). Conditions: read-out: Cannabinoid CB1 Receptor Binding IC50, SK-N-MC cell membranes, radioligand CP-55,940 0.2 nM.
Assay [2] has as its target human CB2 receptor (Homo sapiens, UniProt P34972). The assay is described as follows: Binding assay, cannabinoid CB2 receptor ([3H]-CP-55,940 displacement). The following applies: read-out: Cannabinoid CB2 Receptor Binding IC50, SK-N-MC cell membranes, radioligand CP-55,940 0.2 nM. As for the experimental part:
Binding Assay for CB1 or CB2 Agonists or Inverse Agonists
The human CB1 and CB2 receptors were stably expressed in SK-N-MC cells transfected with pcDNA3 CB-1 (human) or pcDNA3 CB-2 (human). The cells were grown in T-180 cell culture flasks under standard cell culture conditions at 37° C. in a 5% CO2 atmosphere. The cells were harvested by trysinization and homogenized in a homogenization buffer (10 mM Tris, 0.2 mM MgCl2, 5 mM KCl, with protease inhibitors aprotinin, leupeptin, pepstatin A and bacitracin) and centrifuged (2000 g). The supernatant was then centrifuged in 2M sucrose (31,300 g) to produce a semi-purified membrane pellet. The pellet was resuspended in homogenization and store at −80° C.
On the day of the assay, the pellet was thawed on ice and diluted in assay buffer (50 mM Tris-HCl, 5 mM MgCl2, 2.5 mM EDTA, 0.5 mg/mL fatty acid free bovine serum albumin, pH 7.5). The diluted membrane was added with buffer, test compound or standard and the radioligand [H]^3+-CP-55,940_(0.2 nM) to the wells of a 96-well polypropylene plate. Non-specific binding was measured in wells containing 10 uM WIN 55,212. The plate was covered and incubated for 90 minutes at 30° C. The contents were then aspirated onto a Packard UNIFILTER GF/C filter bottom plate prewet with 0.5% polyethyleneimine. The wells of the polypropylene plate were rinsed and aspirated seven times with a 0.9% saline-0.5% TWEEN 20 solution. The UNIFILTER plate was dried, a scintillation cocktail was added to each well and the counts representing binding were quantitated in a TOPCOUNT scintillation counter.
The IC50 binding values for compounds tested were calculated by linear regression and were obtained from studies in which varying compound concentrations were used.

In assay [3] the target is T1, human CB1 receptor. The assay is described as follows: Functional cell-based assay, CB1 receptor mediated change in CRE β-gal expression (agonist / inverse agonist). Conditions: read-out: CB1 Receptor Functional Inverse Agonist EC50, SK-N-MC cells, forskolin.

As a reminder, the IC50 is the concentration that gives 50% inhibition. Consider `CC1(C)C2CCC(CNC(=O)c3nn(-c4cccc(F)c4)c4c3CCCC4)C1C2` (centres unmarked), for which the IC50 in assay [1] amounted to 114 nM; in assay [2], 13 nM. For `CC1(C)C2CCC(CNC(=O)c3nn(-c4ccccc4F)c4c3CCCC4)C1C2` (centres unmarked), in that order: 168 nM and 4.5 nM. For `OCC1C2CCC(C2)C1NCc1nn(C2CCCCC2)c2c1CCCC2` (centres unmarked), the half-maximal inhibitory concentration (IC50) in assay [2] was determined as 9410 nM. As to `CC12CCC(C1)C(C)(C)C2NC(=O)c1nn(C2CCCCC2)c2c1CCCC2` (centres unmarked), the values for the IC50 in assay [1] and in assay [2] were 108 nM and 3 nM, respectively.

On to `O=C(NN1CCCCCC1)c1nn(-c2ccc(Cl)cc2Cl)c2c1CCCC2`, for which the IC50 is 400 nM in assay [1] and 300 nM in assay [2]. On the same counts, the results for `O=C(NC1C2CCC(C2)C1C(=O)O)c1nn(C2CCCCC2)c2c1CCCC2` (centres unmarked) are 22600 nM and 4880 nM. One may read the EC50 as the concentration at which the effect is half-maximal. On to `CCN(C(=O)c1nn(-c2ccc(OC)cc2)c2c1CCCC2)c1ccccc1OC`, for which the IC50 in assay [2] came out at 1570 nM. The EC50 in assay [3] came out at 1510 nM.

In the case of `Cc1ccc(S(=O)(=O)Nc2nn(C3CCCCC3)c3c2CCCC3)cc1`, the half-inhibitory concentration (IC50) in assay [1] is 45000 nM; in assay [2] it was 2700 nM. For `CC1(C)C2CCC(CNC(=O)c3nn(-c4ccc(F)cc4)c4c3CCCC4)C1C2` (centres unmarked), in that order: 216 nM and 30.9 nM.
